# Binding of CDR-mutated scFvs to a peptide of the spike HR2 region

From the AlphaSeq antibody data of Li et al. 2023 (doi:10.1038/s41467-023-39022-2), copy in the FLAb collection.

All variants were tested on one target, the spike HR2 peptide PDVDLGDISGINAS (SARS-CoV-2).

Each scFv is VH, the linker GGGGSGGGGSGGGGS, VL, as in the parent Ab-14, and differs from it in the CDRs of the heavy chain only.
VH: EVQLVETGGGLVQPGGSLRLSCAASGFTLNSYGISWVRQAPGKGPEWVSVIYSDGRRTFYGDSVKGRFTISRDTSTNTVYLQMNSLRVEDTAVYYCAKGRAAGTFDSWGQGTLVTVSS
VL: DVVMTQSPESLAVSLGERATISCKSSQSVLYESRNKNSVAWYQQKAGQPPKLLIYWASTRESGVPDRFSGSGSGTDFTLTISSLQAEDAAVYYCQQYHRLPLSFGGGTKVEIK

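Phage display of a naive human antibody library on the peptide gave the parent. This is the validation round: designs drawn from the data on random variants, tested in the same kind of assay. Several design methods are mixed in this list. In AlphaSeq, yeast of one mating type display the scFv and yeast of the other type display the target. After mating in shaken culture at 30 °C for 16 h, diploids were selected and their barcode pairs sequenced. Each replicate has its own calibration line, from reference interactions of the BCL2 family. Mating was done six times.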

Variants are written as CDR1, CDR2 and CDR3 of the heavy chain (limits as in the source). Parent: GFTLNSYGIS, VIYSDGRRTFYGDSVK, GRAAGTFDS. Variants here have more than six changes. Values are log10 of the apparent Kd in nM; lower means stronger binding. Replicates are averaged; those with no signal do not enter the mean. An entry "no signal" has no value in the source: the pair was not observed among the diploids in any replicate. This suggests poor binding but is not conclusive.

Variant GFDLDEYGIS, VIYADGMRTAYADSVK, GQTAGTFDI showed -0.23 (6 of 6 replicates).
Variant GFDLNEYGIS, VIYADGSRKAYADSVK, GNQAGTFDV showed -0.75 (6 of 6 replicates).
Variant GFNLNEYGIS, VIYADGMRENYADSVK, GGLDVQEGY showed no signal (0 of 6 replicates).
Variant GFDLEDYGIS, VIYADGRRTFYADSVK, GEIAGTFDQ showed -0.45 (6 of 6 replicates).
Variant GFNLDEIGIS, VIYADGRRTVYTDKVK, GANGVDIDV showed no signal (0 of 6 replicates).
Variant GFDLNEYGIS, VIYADGMRTAYADKVK, GNVAGTFDL showed -0.62 (6 of 6 replicates).
Variant GFDLNEYGIS, VIYADGMRTFYSDSVK, GENAGTFDM showed 1.26 (6 of 6 replicates).
Variant GFDLNEYGIS, VIYADGMRTSYADSVK, GNVAGTFDV showed -0.20 (6 of 6 replicates).
Variant GFDIEEYGIS, VIYADGVRQAYKNKVK, GQIAGGQFD showed no signal (0 of 6 replicates).
Variant GFDIEEYGIS, VIYADGVRAMYKSNFK, GKIAGTYLI showed no signal (0 of 6 replicates).
Variant GEDLEEYGIS, VIYADGMRQYYANSVK, GDINDFDDL showed no signal (0 of 6 replicates).
Variant GFDLDEYGIS, VIYADGRRTAYADSVK, GTNAGTFDM showed no signal (0 of 6 replicates).
Variant GFDLNEYGIS, VIYADGMRTFYSDSVK, GETAGTFDV showed 0.62 (6 of 6 replicates).
Variant GFDLDEYGIS, VIYADGMRTFYADSVK, GNIAGTFLQ showed -0.33 (6 of 6 replicates).
Variant GFDLNEYGIS, VIYADGRRTFYADSVK, GSNAGTFDM showed -0.44 (5 of 6 replicates).
Variant GFALEEYGIS, VIYADGKRTAYANKVK, GGYSFLKGI showed no signal (0 of 6 replicates).
Variant GGNLDEYGIS, VIYADGKRRQYVDNVK, GEHADAFDM showed no signal (0 of 6 replicates).
Variant GMSIGEYGIS, VIYADGERTNYASNFK, GVEAGTFDV showed no signal (0 of 6 replicates).
Variant GFQIEEYGIS, VIYADGDRKNYDAKVK, GQIAGTLDM showed -0.19 (5 of 6 replicates).
Variant GFDLNEYGIS, VIYADGMRTAYSDKVK, GEVAGTFDL showed -0.17 (6 of 6 replicates).
Variant GFDLNEYGIS, VIYADGMRTAYADNVK, GEVAGTFDV showed -1.48 (6 of 6 replicates).
Variant GFDLNEYGIS, VIYADGVRTAYADSVK, GEVAGTFDM showed -1.33 (6 of 6 replicates).
Variant GFDLNEYGIS, VIYADGMRTAYSDSVK, GQVAGTFDV showed -0.53 (6 of 6 replicates).
Variant GFDLNEYGIS, VIYADGRRTYYADSVK, GENAGTFDL showed -0.39 (6 of 6 replicates).
Variant GFDLDEYGIS, VIYADGQRTAYADSVK, GTNAGTFDI showed -0.89 (6 of 6 replicates).
Variant GFDLNEYGIS, VIYADGVRTFYADSVK, GEAAGTFDV showed -0.38 (6 of 6 replicates).
Variant GFDLDEYGIS, VIYADGKRTAYANSVK, GEVAGTFDV showed -0.14 (5 of 6 replicates).
Variant GFDLNEYGIS, VIYADGRRTFYADSVK, GEAAGTFNV showed -0.58 (6 of 6 replicates).
Variant GFDLDEYGIS, VIYADGQRTAYADSVK, GNQAGTFDQ showed 0.43 (6 of 6 replicates).
Variant GFDLSEYGIS, VIYADGRRTFYTDSVK, GENAGTFDV showed -0.54 (6 of 6 replicates).
Variant GFDLDEYGIS, VIYADGVRTAYADSVK, GNQAGTFDV showed 0.15 (6 of 6 replicates).
Variant GFDLNEYGIS, VIYADGRRTFYADSVK, GQVAGTFDM showed -0.91 (6 of 6 replicates).
Variant GFDLNEYGIS, VIYADGRRTNYTDSVK, GTNAGTFDM showed 0.95 (6 of 6 replicates).
Variant GFDLEDYGIS, VIYADGRRTFYSDSVK, GENAGTFDI showed -0.23 (6 of 6 replicates).
Variant GFDLNEYGIS, VIYADGQRTAAANTVK, GGAVGGQLD showed 1.21 (6 of 6 replicates).
Variant GFDLNEYGIS, VIYADGMRTAYADKVK, GENAGTFDI showed -0.11 (6 of 6 replicates).
Variant GFDLNEYGIS, VIYADGSRTFYSDSVK, GQTAGTFDT showed 0.38 (6 of 6 replicates).
Variant GADLNEYGIS, VIYADGDRKAFQNDVK, GTNAGDFDI showed no signal (0 of 6 replicates).

Extract of 3 entries:

GGNLDEYGIS, VIYADGKRRQYVDNVK, GEHADAFDM: no signal (0 of 6 replicates).
GFDLDEYGIS, VIYADGQRTAYADSVK, GNQAGTFDQ: 0.43 (6 of 6 replicates).
GFDLSEYGIS, VIYADGRRTFYTDSVK, GENAGTFDV: -0.54 (6 of 6 replicates).

Empty control strains, which show no peptide, gave a signal in 1% of pairings with all heavy chain designs; the median was 2.08 and 95% of these signals were weaker than 0.84. No background was subtracted. In the paper, a design with two or fewer of six values counts as a poor binder. The range of this assay differs from that of the first round, and the authors advise against merging the two.